From PubChem BioAssay AID1508623 (National Center for Advancing Translational Sciences (NCATS), 2021) come the findings set out here.

Structures are written as SMILES. “And” between values parts separate entries of the source, which are not always exact repeats. Equal entries are not always repeated. The entries are a selection whose mix differs from that of the whole data set. Results filed as inconclusive are left out. The source made the active and inactive calls. Calls come from the whole dose curve; as a rule, active = well fitted inhibition curve with a large enough effect; inconclusive = small, poorly fitted or top-dose-only effect; inactive = no such curve, though single readings can be large or run the other way.

This assay can be described thus: Primary qHTS for Identification of Small Molecule Inhibitors of Huntingtin Promoter Activity. Note: nearly all actives have a fitted effect of over 50% in size. The following applies: HEK293 HTT promoter firefly luciferase reporter (activity 0% = vehicle and -100% = no light), 24 h; at 57.5 µM (top of the series) unless noted. An excerpt:
Assay Provider: Russell L. Margolis M.D.
Department Neurology, Johns Hopkins University School of Medicine, Baltimore, MD
Huntington's Disease (HD) is a neurodegenerative disorder caused by a CAG repeat expansion in exon 1 of huntingtin (HTT). While there are currently no disease-modifying treatments for HD, recent efforts have focused on development of nucleotide-based therapeutics to lower HTT expression. As an alternative to siRNA or oligonucleotide methods, we hypothesized that suppression of HTT expression might be accomplished by small molecules that either (1) directly decrease HTT expression by suppressing HTT promoter activity or (2) indirectly decrease HTT expression by increasing the promoter activity of HTT-AS, the gene antisense to HTT that appears to inhibit expression of HTT.
We developed and employed a high throughput screen for modifiers of HTT and HTT-AS promoter activity using luminescent reporter HEK293 cells; of the 52,041 compounds tested, we identified 898 replicable hits. We used a rigorous stepwise approach to assess compound toxicity and the capacity of the compounds to specifically lower huntingtin protein in 5 different cell lines, including HEK293 cells, HD lymphoblastoid cells, mouse primary neurons, HD iPSCs differentiated into cortical-like neurons, and HD hESCs. We found no compounds which were able to lower huntingtin without lowering cell viability in all assays, though the potential efficacy of a few compounds at non-toxic doses could not be excluded.
SEQUENCE No. (1, 2, 3, etc.); […] […]
7; Detection; Luminescence; FLuc […]
1; High-throughput screening, measuring luminescence from a Hek293 luciferase reporter, was performed in 1,536 well white-walled tissue-culture treated plates. […]
4; Cells were then incubated for 24 hours at 37 degrees C prior to luminescence measurements.
5; In all cases, luminescence was measured using the Dual-Glo Luciferase Reporter Assay System (Promega) following the manufacturer's instructions. […]
7; Luminescence signal was obtained using the PerkinElmer ViewLux plate reader. […]
For orientation: In qHTS, concentration-response curves come from the screen itself.
As for `CCC(=O)N(c1ccccc1)C1(COC)CCN(CCc2cccs2)CC1`, the activity change, negative = inhibition was inactive: -9.49% [at 116 µM].
Turning to `CCC(=O)N(c1ccccc1)C1(COC)CCN(CCn2nnn(CC)c2=O)CC1`, the activity change, negative = inhibition is inactive: -2.18% [at 116 µM].
Turning to `CN(CCCl)CCCl`, the activity change, negative = inhibition was inactive: -13.6% and inactive: -12.3%.
